Here are results for 11 compounds from patent US5677432A, “Immunological detection of organophosphates” (dated 1997).

Test [1] relates to antisera to parathion immunoconjugate. The test can be described thus: Competition ELISA, polyclonal sera from mice immunized with parathion immunoconjugate. As to conditions: for competition / cross reactivity (in words): all mouse sera.
Test [2] concerns antisera to paraoxon immunoconjugate. The test can be described thus: Competition ELISA, polyclonal sera from mice immunized with paraoxon immunoconjugate. The following applies: for cross reaction (in words): any sera from mice injected with paraoxon-hapten immunoconjugates.
Test [3] has as its system MAb 4D4 raised against parathion immunoconjugate. The test can be described thus: Competitive ELISA with peroxidase-labelled MAb 4D4.
Test [4] concerns MAb 8B1 raised against parathion immunoconjugate. The test can be described thus: Competitive ELISA with peroxidase-labelled MAb 8B1.
Test [5] has as its system MAb 10H12 raised against parathion immunoconjugate. The experiment in a line: Competitive ELISA with peroxidase-labelled MAb 10H12.
Test [6] deals with antisera to chlorpyrifos immunoconjugate. The test can be described thus: Competition ELISA, polyclonal sera from mice immunized with chlorpyrifos immunoconjugate.
For test [7], the system named is antisera to azinphos immunoconjugate. The experiment in a line: Competition ELISA, polyclonal sera from mice immunized with azinphos immunoconjugate.
The subject of test [8] is MAbs raised against the azinphos immunoconjugate. The experiment in a line: Competitive ELISA, MAbs against azinphos immunoconjugate taken together.
Test [9] deals with MAbs raised against the parathion immunoconjugate. The experiment in a line: Competitive ELISA, MAbs against parathion immunoconjugate taken together. As to conditions: under the assay conditions given.
The test system of test [10] is MAb 7E10 raised against azinphos immunoconjugate. The experiment in a line: Competitive ELISA with peroxidase-labelled MAb 7E10.
The test system of test [11] is MAb 9D11 raised against azinphos immunoconjugate. The test can be described thus: Competitive ELISA with peroxidase-labelled MAb 9D11.
Test [12] has as its system MAb 8G8 raised against azinphos immunoconjugate. The test can be described thus: Competitive ELISA with peroxidase-labelled MAb 8G8.
The mark [13] stands for this setting: sera to azinphos immunoconjugate.

In the case of `CCOP(=O)(OCC)Oc1ccc([N+](=O)[O-])cc1`, the “competition / cross reactivity (in words)” value in test [1] is listed as “only low levels of cross-reactivity”. Besides, in [1] (mouse 3 and 4 sera), the cross reaction entry is recorded as “no cross reaction”. In addition, the I20 is 1200 ng/mL in test [2] (mouse 1 serum), 710 ng/mL in test [2] (mouse 2), 1200 ng/mL in [2] (mouse 3 serum) and 200 ng/mL in [2] (mouse 4). Also, the I50 in test [2] (mouse 1 serum) amounted to 8.1 µg/mL; in test [2] (mouse 2), 2.2 µg/mL; in test [2] (mouse 3 serum), 8 µg; in test [2] (mouse 4) it was 2 µg/mL. Moreover, the I80 is 46 µg/mL in test [2] (mouse 1 serum), 105 µg/mL in test [2] (mouse 2), 43 µg/mL in test [2] (mouse 3 serum) and 23 µg/mL in [2] (mouse 4). The “detection relative to parathion” value in [3] stood at 2%; in test [4] it was 2%; in test [5] it was 100%. Further, the entries for the “reaction / cross-reactivity (in words)” value in test [3], in test [4] and in [5] were “only low levels of cross-reactivity”, “only low levels of cross-reactivity” and “reacted equally well”, respectively.

Consider `CC1(COCC(=O)O)COP(=S)(Oc2nc(Cl)c(Cl)cc2Cl)OC1` (centres unmarked), for which, in test [6] (all mice), the I20 stood at 1 ng/mL, the I50 was found to be 20 ng/mL and the I80 amounted to 100 ng/mL.

Take `CC1(COCC(=O)O)COP(=S)(SCn2nnc3ccccc3c2=O)OC1` (centres unmarked): in test [7] (competition with hapten), the I20 was 1 to 2 ng/mL, the I50 is listed as 6-10 ng/mls and the I80 lay in the range of 0.06 to 0.1 µg/mL.

Consider `COP(=S)(OC)SCn1nnc2ccccc2c1=O`, for which the “competition / cross reactivity (in words)” value in test [1] is “no competition was observed”. The “cross reaction (in words)” value in [2] was “No cross reaction was observed”. Further, the “range that could be quantitated” value in test [8] (under the assay conditions given) is recorded as “picogram to low ng range”. In [7] (mouse 1 and 3 sera), this compound came in with an I20 of 400 ng/mL, an I50 of 4 µg/mL and an I80 of 30 µg/mL. In test [7] (mouse 2 serum), this compound returned an I20 of 800 ng/mL, an I50 of 20 µg/mL and an I80 of 120 µg/mL. Besides, in test [7] (mouse 4 serum), the I20 turned out to be 20 ng/mL, the I50 was 0.8 µg/mL and the I80 was 34 µg/mL. For the same compound, the “relative competitiveness (azinphos ethyl vs azinphos methyl)” value in test [7] (setting [13]) was “only marginally less effective than azinphos ethyl”.

With `CCOP(=S)(OCC)Oc1nc(Cl)c(Cl)cc1Cl`, the “competition / cross reactivity (in words)” value in test [1] is given as “no competition was observed”; in [1] (listed as Chlorpyrifos), “no cross reactivity”. Moreover, the “cross reaction (in words)” value is “No cross reaction was observed” in test [2] and “no cross reaction” in test [7] (setting [13]). Besides, the I20 in test [6] (sera of mouse 1 and 2) was 60 ng/mL; in [6] (sera of mouse 3 and 4) it was 25 ng/mL. Moreover, the I50 came out at 300 ng/mL in [6] (sera of mouse 1 and 2); 150 ng/mL in test [6] (sera of mouse 3 and 4). The I80 in [6] (sera of mouse 1 and 2) worked out at 1500 ng/mL; in test [6] (sera of mouse 3 and 4), 860 ng/mL.

As to `O=[N+]([O-])c1ccc(O)cc1`, the “reaction / cross-reactivity (in words)” value in [3] and in [4] was “no detectable reaction” throughout.

Consider `CC1(COCC(=O)O)COP(=S)(Oc2ccc([N+](=O)[O-])cc2)OC1` (centres unmarked), for which, in test [1] (competition with hapten), the I20 lay in the range of 1 to 2 ng/mL, the I50 fell in the range of 0.02 to 0.025 µg/mL and the I80 was 0.08 to 0.1 µg/mL.

With `CCOP(=S)(OCC)Oc1ccc([N+](=O)[O-])cc1`, the I20 in test [1] (mouse 1 serum) worked out at 80 ng/mL; in test [1] (mouse 2 serum), 60 ng/mL; in test [1] (mouse 3 serum), 300 ng/mL; in [1] (mouse 4 serum), 350 ng/mL. Also, the I50 was determined as 1.2 µg/mL in test [1] (mouse 1 serum), 0.8 µg/mL in [1] (mouse 2 serum), 4 µg/mL in test [1] (mouse 3 serum) and 2.1 µg/mL in test [1] (mouse 4 serum). Besides, the I80 in [1] (mouse 1 serum) amounted to 16 µg/mL; in test [1] (mouse 2 serum), 11 µg/mL; in [1] (mouse 3 serum), 31 µg/mL; in test [1] (mouse 4 serum), 33 µg/mL. Also, in test [9], the “range that could be quantitated” value is “ng to low μg/ml”. Besides, the “cross-reactivity (in words)” value in test [8] (MAb-based assays) is “no cross-reactivity”. Moreover, the “cross reaction relative to azinphos methyl” value is recorded as 1-2% in test [7] (setting [13]) and 1-2% in test [7] (sera to azinphos immunoconjugate, listed as Parathion). Further, in [5], the “reaction / cross-reactivity (in words)” value is given as “reacted equally well”.

Consider `CCOP(=S)(OCC)SCn1nnc2ccccc2c1=O`, for which, in [2], the “cross reaction (in words)” value is listed as “No cross reaction was observed”. For the same compound, the “reaction relative to azinphos methyl” value in test [10], in [11] and in test [12] was 30% each time. The Competition result in test [6] (at concentrations up to 100 μg/ml) was “neither parathion, paraoxon, azinphos methyl nor azinphos ethyl could compete at 100 μg/ml”. In [7] (setting [13]), the “relative competitiveness (azinphos ethyl vs azinphos methyl)” value is reported as “slightly more competitive than azinphos methyl”.

For `COP(=S)(OC)Oc1ccc([N+](=O)[O-])c(C)c1`, the “detection relative to parathion” value in [3] is given as 30%; in test [4], 30%; in test [5], 80%.

In test [2] (competition with hapten), `CC1(COCC(=O)O)COP(=O)(Oc2ccc([N+](=O)[O-])cc2)OC1` (centres unmarked) displayed an I20 of 2 ng/mL, an I50 of 0.02 µg/mL and an I80 of 0.1 µg/mL.
